Measurements reported in PubChem BioAssay (NCI).
Some of these compounds have results that are not shown, active ones among them.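 These data come from cells grown in 96-well plates and exposed to compound for 48 hours at five concentrations. At the GI50, growth is halved.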

Experiments:
Assay in all cases: NCI anticancer screen, dose series, 48 h; in the data active = GI50 below about 0.43 µM; inactive = the rest
786-0 renal = test system: 786-0 renal
A498 renal = test system: A498 renal
A549 NSCLC = test system: A549 NSCLC
ACHN renal = test system: ACHN renal
BT-549 breast = test system: BT-549 breast
CAKI-1 renal = test system: CAKI-1 renal
CCRF-CEM leukemia = test system: CCRF-CEM leukemia
COLO 205 colon = test system: COLO 205 colon
DU-145 prostate = test system: DU-145 prostate
EKVX NSCLC = test system: EKVX NSCLC
HCC-2998 colon = test system: HCC-2998 colon
HCT-116 colon = test system: HCT-116 colon
HCT-15 colon = test system: HCT-15 colon
HL-60(TB) leukemia = test system: HL-60(TB) leukemia
HOP-62 NSCLC = test system: HOP-62 NSCLC
HOP-92 NSCLC = test system: HOP-92 NSCLC
HS 578T breast = test system: HS 578T breast
HT29 colon = test system: HT29 colon
IGROV1 ovarian = test system: IGROV1 ovarian
K-562 leukemia = test system: K-562 leukemia
KM12 colon = test system: KM12 colon
LOX IMVI melanoma = test system: LOX IMVI melanoma
M14 melanoma = test system: M14 melanoma
MALME-3M melanoma = test system: MALME-3M melanoma
MCF7 breast = test system: MCF7 breast
MDA-MB-231 breast = test system: MDA-MB-231 breast
MDA-MB-435 = test system: MDA-MB-435
MDA-N = test system: MDA-N
MOLT-4 leukemia = test system: MOLT-4 leukemia
NCI-H226 lung = test system: NCI-H226 lung
NCI-H23 lung = test system: NCI-H23 lung
NCI-H460 lung = test system: NCI-H460 lung
NCI-H522 lung = test system: NCI-H522 lung
NCI/ADR-RES ovarian = test system: NCI/ADR-RES ovarian
OVCAR-3 ovarian = test system: OVCAR-3 ovarian
OVCAR-4 ovarian = test system: OVCAR-4 ovarian
OVCAR-5 ovarian = test system: OVCAR-5 ovarian
OVCAR-8 ovarian = test system: OVCAR-8 ovarian
PC-3 prostate = test system: PC-3 prostate
RPMI-8226 leukemia = test system: RPMI-8226 leukemia
RXF 393 renal = test system: RXF 393 renal
SF-268 CNS = test system: SF-268 CNS
SF-295 CNS = test system: SF-295 CNS
SF-539 CNS = test system: SF-539 CNS
SK-MEL-2 melanoma = test system: SK-MEL-2 melanoma
SK-MEL-28 melanoma = test system: SK-MEL-28 melanoma
SK-MEL-5 melanoma = test system: SK-MEL-5 melanoma
SK-OV-3 ovarian = test system: SK-OV-3 ovarian
SN12C renal = test system: SN12C renal
SNB-19 CNS = test system: SNB-19 CNS
SNB-75 CNS = test system: SNB-75 CNS
SR leukemia = test system: SR leukemia
SW-620 colon = test system: SW-620 colon
T-47D breast = test system: T-47D breast
TK-10 renal = test system: TK-10 renal
U251 CNS = test system: U251 CNS
UACC-257 melanoma = test system: UACC-257 melanoma
UACC-62 melanoma = test system: UACC-62 melanoma
UO-31 renal = test system: UO-31 renal

Measured: GI50

CCC#CC(O)(C(=O)OC1CC2CCC(C1)N2C)c1ccccc1 (centres undefined)
inactive: 786-0 renal > 100 µM | A498 renal > 100 µM | A549 NSCLC > 100 µM | ACHN renal > 100 µM | BT-549 breast > 100 µM | CAKI-1 renal > 100 µM | CCRF-CEM leukemia > 100 µM | COLO 205 colon > 100 µM | DU-145 prostate > 100 µM | EKVX NSCLC > 100 µM | HCC-2998 colon > 100 µM | HCT-116 colon > 100 µM | HCT-15 colon > 100 µM | HL-60(TB) leukemia > 100 µM | HOP-62 NSCLC > 100 µM | HOP-92 NSCLC > 100 µM | HS 578T breast 43.3 µM | HT29 colon > 100 µM | IGROV1 ovarian > 100 µM | K-562 leukemia > 100 µM | KM12 colon > 100 µM | LOX IMVI melanoma > 100 µM | M14 melanoma > 100 µM | MALME-3M melanoma > 100 µM | MCF7 breast > 100 µM | MDA-MB-231 breast > 100 µM | MDA-MB-435 = > 100 µM | MDA-N > 100 µM | MOLT-4 leukemia > 100 µM | NCI-H226 lung > 100 µM | NCI-H23 lung > 100 µM | NCI-H460 lung > 100 µM | NCI-H522 lung > 100 µM | NCI/ADR-RES ovarian > 100 µM | OVCAR-3 ovarian > 100 µM | OVCAR-4 ovarian > 100 µM | OVCAR-5 ovarian > 100 µM | OVCAR-8 ovarian > 100 µM | PC-3 prostate > 100 µM | RPMI-8226 leukemia > 100 µM | RXF 393 renal > 100 µM | SF-268 CNS > 100 µM | SF-295 CNS > 100 µM | SF-539 CNS > 100 µM | SK-MEL-2 melanoma > 100 µM | SK-MEL-28 melanoma > 100 µM | SK-MEL-5 melanoma > 100 µM | SK-OV-3 ovarian > 100 µM | SN12C renal > 100 µM | SNB-19 CNS > 100 µM | SNB-75 CNS > 100 µM | SR leukemia > 100 µM | SW-620 colon > 100 µM | T-47D breast > 100 µM | TK-10 renal > 100 µM | U251 CNS > 100 µM | UACC-257 melanoma > 100 µM | UACC-62 melanoma > 100 µM | UO-31 renal > 100 µM
